# From paper PMC6879014, “Biophysical screening methods for extracellular domain peptide receptors, application to natriuretic peptide receptor C ligands” (Chemical Biology & Drug Design, 2018)
# T1: Human full-length (FL) NPR-C (27–541)-10His-Flag (human, UniProt P17342-2 27-540)
# T1 construct: natriuretic peptide receptor C (NPR-C), human, residues 27-541; Primarily a disulphide-bonded dimer (~130 kDa) on non-reducing SDS-PAGE; The tag's end is read from the construct's name (27–541)-10His-Flag; also called natriuretic peptide receptor C; natriuretic peptide receptor type-C; source: expressed and isolated at Peak Proteins, UK; not shown: 10His, C-terminal, kept; Flag, C-terminal, kept
# T1 sequence (looked up): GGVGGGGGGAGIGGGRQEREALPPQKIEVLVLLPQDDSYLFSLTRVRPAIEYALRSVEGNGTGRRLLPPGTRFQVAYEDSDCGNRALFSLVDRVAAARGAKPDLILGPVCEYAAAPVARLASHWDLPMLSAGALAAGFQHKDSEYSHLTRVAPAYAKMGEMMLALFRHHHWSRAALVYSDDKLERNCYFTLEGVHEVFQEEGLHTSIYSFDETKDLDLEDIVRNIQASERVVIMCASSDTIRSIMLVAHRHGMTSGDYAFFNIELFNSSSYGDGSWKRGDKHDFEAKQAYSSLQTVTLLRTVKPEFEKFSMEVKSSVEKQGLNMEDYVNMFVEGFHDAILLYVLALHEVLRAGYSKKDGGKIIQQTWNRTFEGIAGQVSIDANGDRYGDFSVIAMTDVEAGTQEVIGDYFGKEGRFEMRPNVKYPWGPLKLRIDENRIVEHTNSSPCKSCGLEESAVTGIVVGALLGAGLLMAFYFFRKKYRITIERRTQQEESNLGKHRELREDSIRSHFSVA
# T2: extracellular domain (ECD) NPR-C (27–481)-6His (human, UniProt P17342-2 27-481)
# T2 construct: natriuretic peptide receptor C (NPR-C), human, extracellular domain, residues 27-481; Mainly monomer (~55 kDa) on non-reducing SDS-PAGE; the discussion says ~25% of the molecules are disulphide-bonded; The tag's end is read from the construct's name; also called (27–481)-6His (ECD); extracellular NPR-C; source: expressed and isolated at Peak Proteins, UK; not shown: 6His, C-terminal, kept
# T2 sequence (looked up): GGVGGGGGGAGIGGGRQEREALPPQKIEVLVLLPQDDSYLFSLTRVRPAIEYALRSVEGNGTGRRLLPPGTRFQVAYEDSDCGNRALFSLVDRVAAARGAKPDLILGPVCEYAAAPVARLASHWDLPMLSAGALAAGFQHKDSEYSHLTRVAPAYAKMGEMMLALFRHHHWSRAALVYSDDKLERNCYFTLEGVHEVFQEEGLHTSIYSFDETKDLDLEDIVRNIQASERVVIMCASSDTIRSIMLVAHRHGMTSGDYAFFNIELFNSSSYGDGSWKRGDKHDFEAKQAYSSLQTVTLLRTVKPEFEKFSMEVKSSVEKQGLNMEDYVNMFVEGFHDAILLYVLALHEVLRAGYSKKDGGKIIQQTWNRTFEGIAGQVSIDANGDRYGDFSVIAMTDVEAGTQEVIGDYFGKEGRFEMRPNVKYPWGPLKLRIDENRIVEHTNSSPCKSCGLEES
# B1: C-type natriuretic peptide (ligand)
# chain: GLSKGCFGLKLDRIGSMSGLGC
# modifications: intramolecular disulfide between the two Cys (CNP-22 Cys6-Cys22; precursor Cys110-Cys126). The paper does not print the form or species; CNP-22, the standard commercial CNP (Sigma-Aldrich), is taken …
# Key:
# Conditions in all cases: both partners purified
# [1] = target: T1, Human full-length (FL) NPR-C …; experiment: SPR; BIAcore T200, CM5 chip; NPR-C amine-coupled (FL 10,000 RU, ECD 5,000 RU); CNP 0.5-8 nM, single-cycle sequential injections, 30 ul/min, 240 s each, dissociation 3,600 s; PBS-P with 1% DMSO; kinetic 1:1 (Langmuir) model
# [2] = target: T2, extracellular domain (ECD) NPR-C …; experiment: as above
# [3] = target: T2, extracellular domain (ECD) NPR-C …; experiment: fluorescence polarisation; competition against 15 nM Flu-P19 probe; FL NPR-C 150 nM or ECD NPR-C 400 nM; competitor 4.89 nM-2.5 uM; HEPES buffer, 3% DMSO; Ki computed from IC50 with a web-based converter
binder,measurement,setting,value
B1,Kd,[1],0.0036 nM
same,Kd,[2],0.0069 nM
same,IC50,[3],54.9 nM and 60.3 nM

# Several values for one entry are separate records, joined by “and”; a condition that tells them apart may be missing. Equal entries are not always repeated.
